# Experimental logP (octanol/water) values from OPERA 2.9

Values as listed in the OPERA 2.9 repository of K. Mansouri.

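OPERA's authors assembled the values from existing databases and did not measure them anew. One number stands for a compound and property, with no spread given. How each value was measured is not recorded, so precision varies. Where a salt, mixture or single isomer is drawn, the source does not say that exactly this form was tested. Some upstream entries may be estimates or bounds without being marked so.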

The octanol-water partition coefficient is given as log10; larger values mean a more lipophilic compound. "via" names the databases from which the curators took the value.

SMILES	logP	via
COCCOCCOCCOCCOC	-0.84	eChemPortal
CCCCCCCCCCCCCCCCCCCCCC(=O)O	4.616	eChemPortal
CCCCCCCCC=CCCCCCCCC1=NC(CC)(CO)CO1 (configuration not stated)	3.42	eChemPortal
COC(=O)C(N)C(C)O (configuration not stated)	-1.2	eChemPortal
CCCCc1ccc2[n-]nnc2c1.[Na+]	0.65	eChemPortal
O=C(Oc1ccc(OC(=O)c2ccc(O)cc2)cc1)c1ccc(O)cc1	2.2	eChemPortal
CC(C)(C#N)c1cc(Cn2cncn2)cc(C(C)(C)C#N)c1	2.4	PubChem
C=CN(C)C(C)=O	0.415	eChemPortal
CCC(C)OC(C)CC (configuration not stated)	3.11	OFMPub
CCCCCCCCc1ccc(N)cc1	5.03	OCHEM
CCOC(=O)c1ccc(N(C)C)cc1	3.2	eChemPortal
O=[N+]([O-])c1ccc(CCc2ccc([N+](=O)[O-])cc2)cc1	2.8	eChemPortal
O=C1Nc2ccc(Cl)cc2[C@@](C#CC2CC2)(C(F)(F)F)O1	4.6	PubChem
O=C1c2ccccc2-c2ccc([N+](=O)[O-])cc21	3.06	OCHEM
CCCCCCCCCCCCSC(C)CC(=O)[C@@H]1[C@@H](C)C=CCC1(C)C (relative stereo)	9.4	eChemPortal
CCN(CC)CCOCc1ccc(C)cc1.Cl	0	PubChem
CCCCC(F)(F)C(=O)CC[C@H]1[C@H](O)CC(=O)[C@@H]1CCCCCCC(=O)O	4.3	PubChem
CCCC(=O)O[C@]1(C(=O)CO)CC[C@H]2[C@@H]3CCC4=CC(=O)CC[C@]4(C)[C@H]3[C@@H](O)C[C@@]21C	3.18	OCHEM
CCOC(=O)/C=C(\NC)C(F)(F)F	3	eChemPortal
Cl.Cl.Nc1ccc(OCCO)c(N)c1	0.104	eChemPortal
C[C@H](N)C(=O)N[C@@H](CCC(N)=O)C(=O)O	-4.57	PubChem, eChemPortal
C[N+](C)(C)c1cccc([O-])c1.I	-2.68	OCHEM
COc1ccc(C(=O)Nc2ccccc2)cc1N=Nc1c(O)c(C(N)=O)cc2ccccc12	4.2	eChemPortal
COC(Cc1ccccc1)OC	2.23	eChemPortal
CC(=O)Oc1ccc(C(C)(C)CC(C)(C)C)cc1C1C(=O)Oc2ccc(C(C)(C)CC(C)(C)C)cc21 (configuration not stated)	9.6	eChemPortal
Cc1nn(-c2ccccc2)c(=O)[c-]1/N=N/c1cc([N+](=O)[O-])cc(S(=O)(=O)[O-])c1[O-].[Cr+3].[Na+].[OH-]	-1.56	eChemPortal
CC[C@]1(O)C[C@H]2C[N@](CCc3c([nH]c4ccccc34)[C@@](C(=O)OC)(c3cc4c(cc3OC)N(C=O)[C@H]3[C@@](O)(C(=O)OC)[C@H](OC(C)=O)[C@]5(CC)C=CCN6CC[C@]43[C@@H]65)C2)C1	2.82	OCHEM
CCOCCOC(=O)/C(C#N)=C1\C=C(NCCCOC)CCC1	1.7	eChemPortal
C[N+](C)(C)CCO.[Cl-]	-3.77	eChemPortal
Cc1cc(S(=O)(=O)[O-])c(/N=N/c2c(O)ccc3ccccc23)cc1Cl.Cc1cc(S(=O)(=O)[O-])c(/N=N/c2c(O)ccc3ccccc23)cc1Cl.[Ba+2]	2.027	eChemPortal
CCCCOC(=O)CC(CC(=O)OCCCC)(OC(C)=O)C(=O)OCCCC	4.92	OFMPub, PubChem, eChemPortal
CC1(C)COC2(CC[C@H]3[C@@H]4CCC5=CC6(CC[C@@H]5[C@H]4C(=O)C[C@@]32C)SCCS6)OC1	5.2	eChemPortal
CC(NCCCCCCNC(C)C(C)(C)C)C(C)(C)C (configuration not stated)	2.1	eChemPortal
CC1=CCCC(C)(C)C1CCC(C)C=O (configuration not stated)	5.9	eChemPortal
CCOc1nc2cccc(C(=O)O)c2n1Cc1ccc(-c2ccccc2-c2nnn[nH]2)cc1	2.11	eChemPortal
Cc1ccc(C(=O)c2cc(O)c(O)c([N+](=O)[O-])c2)cc1	4	PubChem
Brc1c(Br)c(Br)c(CCc2c(Br)c(Br)c(Br)c(Br)c2Br)c(Br)c1Br	3.55	eChemPortal
CC1(C)CC(O)CC(C)(CN)C1 (configuration not stated)	0.96	eChemPortal
Oc1ccc(CCCCNC[C@H](O)c2ccc(O)c(O)c2)cc1	2.9	PubChem
COc1ccc(S(=O)(=O)CCOS(=O)(=O)[O-])cc1/N=N/c1c(S(=O)(=O)[O-])cc2cc(S(=O)(=O)[O-])c(/N=N/c3ccc(S(=O)(=O)CCOS(=O)(=O)[O-])cc3)c(N)c2c1O.[Na+].[Na+].[Na+].[Na+]	-4.7	eChemPortal
NCc1ccc(CN)cc1	0.56	eChemPortal
CCC(=O)c1ccc2c(c1)N(CCCN1CCN(CCO)CC1)c1ccccc1S2	3.3	PubChem
CCn1cc[n+](C)c1.CS(=O)(=O)[O-]	-3.1	eChemPortal
CN(C)c1ccc(C(O)(c2ccc(N(C)C)cc2)c2ccc(Nc3ccccc3)c3ccccc23)cc1	6.39	eChemPortal
C=CC(C)(O)CCCC(C)CCCC(C)CCCC(C)C (configuration not stated)	8.8	eChemPortal
CCCCCCCC(=O)OCC	4.47	eChemPortal
CS(=O)(=O)c1ccc(C(=O)O)c([N+](=O)[O-])c1	-0.52	eChemPortal
CC(C)CCC(C)(O)C#CC(C)(O)CCC(C)C (configuration not stated)	4.79	eChemPortal
O=C(O)c1ccccc1SSc1ccccc1C(=O)O	1.61	eChemPortal

Again, the 6 entries with the lowest logP:

SMILES	logP	via
COc1ccc(S(=O)(=O)CCOS(=O)(=O)[O-])cc1/N=N/c1c(S(=O)(=O)[O-])cc2cc(S(=O)(=O)[O-])c(/N=N/c3ccc(S(=O)(=O)CCOS(=O)(=O)[O-])cc3)c(N)c2c1O.[Na+].[Na+].[Na+].[Na+]	-4.7	eChemPortal
C[C@H](N)C(=O)N[C@@H](CCC(N)=O)C(=O)O	-4.57	PubChem, eChemPortal
C[N+](C)(C)CCO.[Cl-]	-3.77	eChemPortal
CCn1cc[n+](C)c1.CS(=O)(=O)[O-]	-3.1	eChemPortal
C[N+](C)(C)c1cccc([O-])c1.I	-2.68	OCHEM
Cc1nn(-c2ccccc2)c(=O)[c-]1/N=N/c1cc([N+](=O)[O-])cc(S(=O)(=O)[O-])c1[O-].[Cr+3].[Na+].[OH-]	-1.56	eChemPortal